Target: T1, MART-1 peptide on HLA-A*02:01 (human)
T1 peptide: AAGIGILTV
Assay: multimer staining
Procedure: The stimulated cells in step I-4 were resuspended and counted. The cells used for flow cell sorting was taken out at 2×10⁵/tube, and then 1 ml of PBS was added therein for resuspension. After centrifugation at 4° C. at 500 g for 5 min, the supernatant was carefully discarded and 200 μl of PBS was added for resuspension. The tetramer (10 μl/ml) prepared in step 1 was added to the tube, mixed homogeneously and carried out a reaction at 4° C. for 30 min. After the reaction time is over, 1 ml of PBS was added for resuspension and centrifugation was carried out at 4° C. at 500 g for 5 min. The supernatant was carefully discarded, and 200 μl of PBS was added for resuspension, and it was placed on ice for flow cytometry detection. After flow cytometry loading, positive population was selected to sort single cells.

B1: MART-1 (27-35) epitope-specific T cell receptor, clone #4 (TCR, V domains shown)
Valpha: QKEVEQNSGPLSVPEGAIASLNCTYSDRGSQSFFWYRQYSGKSPELIMFIYSNGDKEDGRFTAQLNKASQYVSLLIRDSQPSDSATYLCAVNTPMEYGNKLVFGAGTILRVKS
Vbeta: GAGVSQSPRYKVAKRGQDVALRCDPISGHVSLFWYQQALGQGPEFLTYFQNEAQLDKSGLPSDRFFAERPEGSVSTLKIQRTQQEDSAVYLCASSYVVGLTYNEQFFGPGTRLTVL
Question: Does B1 bind?
Answer: Result: recognises
